# Data from patent publication US20050004000A1, “Oral absorbed drugs” (priority 2001, published 2005).
# Experiments:
# [1] = mice
# Experimental: (§1) The experiment was carried out with a single mice or rat per compound (per metabolic cage) and it was repeated 7 times with rats and twice with mice using the protocol below. The fluorescent feature of doxorubicin enables the observation of its presence in the urine following different modes of administration.
# The experiments were repeated with mice.
# [2] = rats
# Experimental: as §1
# Urine was collected several times after administration and the fluorescence emission was measured by a fluorometer. The urine collected from the untreated groups was used as a blank.
# Urine was collected at 1.25, 2.5, 4 and 6 hours after administration and fluorescence intensity was measured in a fluorometer (SPECTRAmax and GEMINI of Molecular Devices Sunnyvale Fluorometer, CA, USA). Since doxorubicin is a fluorescent material, when it absorbs light energy at a wavelength of 488 nm (excitation), it undergoes an electronic state change and instantaneously emits light at 595 nm (emission). The Relative Fluorescence Units (RFU) shown in FIG. 1 indicate the peaks of light emitted at 595 nm resulting from the absorption of Dox at 488 nm.
substance,measurement,setting,value
Fms-doxorubicin,absorption following I.P. administration (urine fluorescence),[1]; I.P.,absorbed
same,oral absorption (urine fluorescence),[1]; orally,absorbed orally
same,"oral absorption (Relative Fluorescence Units in urine, FIG. 1)","[2]; 15 mg/Kg Fms-Dox oral, urine at 1.25, 2.5, 4 and 6 hours, average of 5 experiments",orally absorbed
same,absorption following I.P. administration (urine fluorescence),"[2]; Dox 10 μg/g, Fms-Dox 15 μg/g I.P.",absorbed
same,oral absorption (urine fluorescence),"[2]; Dox 10 μg/g, Fms-Dox 15 μg/g orally",absorbed orally

# Read-outs that look alike come from different tables or passages of the source.
